Assay results from patent publication US9115061B2, “Naphthalene-based inhibitors of anti-apoptotic proteins” (BURNHAM INSTITUTE FOR MEDICAL RESEARCH, priority 2007, dated 2015).

Sequences of proteins named here, by UniProt entry; tags and fusion partners are left off. A change or cut given only in a name is not applied to a line headed by its entry. Residues count along the entry.
UniProt Q07817, 1-209: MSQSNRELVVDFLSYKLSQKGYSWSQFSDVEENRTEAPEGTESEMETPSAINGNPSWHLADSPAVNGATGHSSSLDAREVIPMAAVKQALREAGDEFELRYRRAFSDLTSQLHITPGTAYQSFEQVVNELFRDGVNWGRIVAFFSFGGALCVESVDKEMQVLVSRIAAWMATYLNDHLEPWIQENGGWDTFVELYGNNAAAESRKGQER
UniProt Q07817, whole entry: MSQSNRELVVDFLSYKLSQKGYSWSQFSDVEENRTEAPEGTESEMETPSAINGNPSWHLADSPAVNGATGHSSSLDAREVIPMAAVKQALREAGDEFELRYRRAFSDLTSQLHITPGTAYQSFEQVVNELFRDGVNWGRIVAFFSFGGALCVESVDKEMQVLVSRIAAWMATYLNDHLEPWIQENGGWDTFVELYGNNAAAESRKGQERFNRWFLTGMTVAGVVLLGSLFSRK

Tests used:
GST-BCL-XL ΔTM protein = GST-BCL-XL ΔTM protein (Homo sapiens (Human), UniProt Q07817); test: Competitive fluorescence polarization assay (FITC-Bak BH3 peptide); type: binding
Description: For competitive binding assays, 100 nM GST-BCL-XL ΔTM protein was preincubated with the tested compound at varying concentrations in 47.5 μL PBS (pH=7.4) in 96-well black plates at room temperature for 10 min, then 2.5 μL of 100 nM FITC-labeled Bak BH3 peptide was added to produce a final volume of 50 μL. The wild-type and mutant Bak BH3 peptides were included in each assay plate as positive and negative controls, respectively.
IC50 was determined by fitting the experimental data to a sigmoidal dose-response nonlinear regression model (SigmaPlot 10.0.1, Systat Software, Inc., San Jose, Calif., USA). Data reported are mean of three independent experiments ±standard error (SE). […] Fluorescence polarization was measured after 10 min.

PC3ML cells = test: Cell viability, ATP-LITE assay; type: cell-based, human
Description: The activity of the compounds against human cancer cell lines (PC3ML, H460, H1299, RS11846) were assessed by using the ATP-LITE assay (PerkinElmer). All cells were seeded in either F12 or RPMI1640 medium with 5 mM L-glutamine supplemented with 5% fetal bovine serum (Mediatech Inc.), penicillin and streptomycin (Omega). For maintenance, cells were cultured in 5% FBS. Cells plated into 96 well plates at varying initial densities depending on doubling time. H460 and H1299 plated at 2000 cells/well, A549 and PC3 at 3000 cells/well, and RS118456S at 10,000 cells/well. Compounds were diluted to final concentrations with 0.1% DMSO. Prior to dispensing compounds onto cells, fresh 5% media was placed into wells. Administration of compounds occurred 24 hours after seeding into the fresh media. Cell viability was evaluated using ATP-LITE reagent (PerkinElmer) after 72 hours of treatment. Data were normalized to the DMSO control-treated cells using Prism version 5.01 (Graphpad Software).

BCL-XL = BCL-XL (Homo sapiens (Human), UniProt Q07817); test: Isothermal titration calorimetry (ITC); type: binding
Description: Titrations were performed using a VP-ITC or ITC200 calorimeter from Microcal (Northampton, Mass.). BCL-XL was used at concentrations between 25 and 100 μM in 20 mM sodium phosphate buffer (pH 7.4) and 5-10% DMSO. Titrants were used at concentrations 10-15× of the protein in the same buffer. Titrations were carried out at 25° C. Data were analyzed using Microcal Origin software provided by the ITC manufacturer (Microcal, Northampton, Mass.).

Cc1ccc(CC(=O)c2c(O)c(O)cc3c(O)c(-c4c(C)cc5c(C(=O)Cc6ccc(C)cc6)c(O)c(O)cc5c4O)c(C)cc23)cc1 [Compound XII, 1,1′-(1,1′,6,6′,7,7′-hexahydroxy-3,3′-dimethyl-2,2′-binaphthyl-5,5′-diyl)bis(2-p-tolylethanone)]
EC50 (GST-BCL-XL ΔTM protein): 320 nM
fold more potent than apogossypol, PC3ML EC50 (PC3ML cells): 2-5 fold
Kd (BCL-XL): 40 nM
times more potent than apogossypol, Kd ITC BCL-XL (BCL-XL): 40 times
